Reference: publication PMC8620910, “Design and Synthesis of (2-oxo-1,2-Dihydroquinolin-4-yl)-1,2,3-triazole Derivatives via Click Reaction: Potential Apoptotic Antiproliferative Agents” (Molecules, 2021)

Test system: active Caspase 3
Assay: Caspase 3 activation assay in MCF-7

## COc1ccc2[nH]c(=O)cc(-n3cc(COc4ccc(C(c5c(O)c6cc(OC)ccc6[nH]c5=O)c5c(O)c6cc(OC)ccc6[nH]c5=O)cc4)nn3)c2c1 [Compound 8g, 3,3’-((4-((1-(6-Methoxy-2-oxo-1,2-dihydroquinolin-4-yl)-1H-1,2,3-triazol-4-yl)methoxy)phenyl)methylene)bis(4-hydroxy-6-methoxyquinolin-2(1H)-one)]
  Caspase 3 Conc: 489.2 ± 4.13 pg/mL
